Target: T1, H3 receptors of the brain of the rat (Rattus norvegicus, UniProt Q9QYN8)
T1 construct: This method requires rat cerebral cortex sections; from tissue; host or cells: rat cerebral cortex sections
Experiment: Antagonism of the inhibition by exogenous histamine of release in rat cerebral cortex sections (central H3 receptors)
Format: cell-based
Conditions: read-out: Apparent dissociation constant (Ki) as antagonist of histamine on the H3 receptors of the brain of the rat, exogenous histamine 1 μM, Ki calculated from IC50 according to Cheng and Prusoff
Description: This method requires rat cerebral cortex sections and has made possible the pharmacological characterization of the H3 receptors (Nature, 1987, 327, 117-123).

Amino acid sequences for entries named in this document (tags omitted). A change or cut given only in a name is not applied to a line headed by its entry.
UniProt Q9QYN8: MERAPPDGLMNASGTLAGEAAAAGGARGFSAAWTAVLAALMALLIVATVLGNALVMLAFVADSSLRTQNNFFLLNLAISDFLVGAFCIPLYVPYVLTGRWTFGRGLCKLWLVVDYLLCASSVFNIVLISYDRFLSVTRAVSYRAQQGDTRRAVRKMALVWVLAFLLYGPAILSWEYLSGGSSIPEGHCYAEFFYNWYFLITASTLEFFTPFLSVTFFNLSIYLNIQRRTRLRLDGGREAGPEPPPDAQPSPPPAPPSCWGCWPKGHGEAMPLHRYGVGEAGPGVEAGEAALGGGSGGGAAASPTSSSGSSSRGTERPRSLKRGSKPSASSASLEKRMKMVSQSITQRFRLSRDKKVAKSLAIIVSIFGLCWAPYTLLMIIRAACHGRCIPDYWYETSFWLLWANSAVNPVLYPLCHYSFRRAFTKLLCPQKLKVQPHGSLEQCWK

SMILES: O=C(Nc1cccc([N+](=O)[O-])c1)OCCCc1c[nH]cn1 [Example 69, 3-(1H-Imidazol-4-yl)propyl N-(3-nitrophenyl)carbamate]
- Ki: 22 nM
